Our source for the MIC values is patent US4640910A (Abbott Laboratories, priority 1985, dated 1987).

Values after ≈ are worked out from the molar mass of the structure shown.

One assay concerns Staph. aureus 45. The assay can be described thus: Antimicrobial spectrum, agar dilution MIC. Particulars: Staphylococcus aureus, BHI agar, 35°-37° C., 20-24 hours. The assay is classed as cell-based.
The test system of a further assay is Staph. aureus 45 RAR2. The assay can be described thus: Antimicrobial spectrum, agar dilution MIC. The assay is classed as cell-based. The settings on record: Staphylococcus aureus, BHI agar, 35°-37° C., 20-24 hours.

As usually defined, the MIC is the least concentration at which growth counts as inhibited. Read a low MIC as inhibition by little substance. For `CC[C@H]1OC(=O)[C@H](C)[C@@H](O[C@H]2C[C@@](C)(OC)[C@@H](O)[C@H](C)O2)[C@H](C)[C@@H](O[C@@H]2O[C@H](C)C[C@H](N(C)C)[C@H]2O[Si](C)(C)C)[C@](C)(OC)C[C@@H](C)C(=O)[C@H](C)[C@@H](O)[C@]1(C)O` [Example 3, 2'-O-trimethylsilyl-6-O-methyl-Erythromycin A], the minimum inhibitory concentration (MIC) with Staph. aureus 45 and in the assay on Staph. aureus 45 RAR2 was 0.78 mg/L (≈ 0.951 µM) in each case.
